Assay [1] has as its system TNFα trimer complex to folate receptor (FOLR2). Put plainly: SPR co-engagement of compound-TNFα trimer complex to folate receptor. The following applies: TNFα + 10 nM compound binding FOLR2. The method, then:
The active (Flow cell 2) surfaces of a Cytiva CM5 Series S Sensor Chip functionalized with FOLR2 as described in Example 58. Example compounds were diluted to 10 nM with 50 and 100 nM TNFα single chain trimer or 150 nM and 300 nM TNFα native monomer in running buffer (10 mM HEPES, 150 mM NaCl, 0.05% T20, pH 7.5, 2% DMSO), allowed to incubate for 5 hours at 25° C. and then flowed over the active and reference surfaces for 110 s, and then allowed to dissociate in running buffer for 600 s, at a flow rate of 30 μL/min. The FOLR2 immobilized active surface and the reference surface were regenerated with a 30 s pulse of 4M MgCl2 at 30 μL/min then allowed to equilibrate 240 s. Sensorgrams were solvent corrected, double-referenced, and the data fitted and analyzed in Biacore Insight Evaluation Software Version 3.0.11.15423.

By UniProt entry, the sequences of proteins in these tests, tags left out. Residues count along the entry.
UniProt P14207, 17-255 limits assumed: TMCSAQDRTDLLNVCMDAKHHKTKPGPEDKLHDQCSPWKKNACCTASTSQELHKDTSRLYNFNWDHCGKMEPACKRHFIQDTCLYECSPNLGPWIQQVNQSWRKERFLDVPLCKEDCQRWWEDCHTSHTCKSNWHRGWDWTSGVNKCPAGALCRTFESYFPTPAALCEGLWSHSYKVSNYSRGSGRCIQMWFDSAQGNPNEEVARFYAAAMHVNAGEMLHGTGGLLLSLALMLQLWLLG
UniProt P01375, 77-233 limits assumed: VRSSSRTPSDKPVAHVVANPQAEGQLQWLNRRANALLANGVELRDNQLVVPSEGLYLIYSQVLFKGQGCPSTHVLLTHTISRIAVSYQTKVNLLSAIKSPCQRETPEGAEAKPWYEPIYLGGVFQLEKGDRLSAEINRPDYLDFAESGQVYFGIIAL

A further assay has as its system THP-1 cells. Put plainly: Compound mediated uptake of TNFα-pHrodo in THP-1 cells (flow cytometry). More on the design: key to the marks not given beside the values. The following applies: ΔMFI compared with I-17, uptake at 10 μM. The method, then: THP-1 cells, a monocytic leukemia cell line that endogenously express folate receptor beta, were used as a model system to measure example compound stimulated uptake of in-house produced TNFα conjugated to the pH sensitive fluorescent dye pHrodo green (ThermoFisher Scientific #P35369).
THP-1 cells were maintained in RPMI (Gibco #61870143) with 10% v/v FBS (VWR #89510-188) with 2 mM L-alanyl-L-glutamine dipeptide, 100 units/ml penicillin and 100 μg/ml streptomycin (Gibco #15140148). Cells were pelleted, resuspended in folate-free RPMI (Gibco #27016021) and seeded at 50,000 cells per well of a 96 well plate. Example compound was added to each well as a log 2 dilution series ranging from 20 μM to 125 nM final concentration. Cells were incubated for 24 hrs and washed/resuspended in phosphate buffered saline (pH 7.4) with 1% w/v BSA. Uptake was measured using a Novocyte Advanteon Flow Cytometer (Agilent Technologies) with the […] and FITC detection configuration.

A further assay addresses FOLR2 (Homo sapiens (Human), UniProt P14207). As to the kind of experiment: SPR binding kinetics of compounds to folate receptor (FOLR2 immobilized on CM5 chip). As to conditions: read-out: Folate binding SPR Kd. As to the method:
A Biacore 8K+ was used to measure the association and dissociation rates of example compounds to FOLR2 (Acro Biosystems, Cat: F02-H5223-100 μg). Briefly, FOLR2 was reconstituted according to the manufacture's instructions to 200 μg/mL. Both the active and reference surfaces of a Cytiva CM5 Series S Sensor Chip were activated with a 1:1 mixture of 400 mM EDC and 100 mM NHS for 420 s at 10 μL/min. 25 μg/mL FOLR2 diluted in Sodium Acetate pH 5.5 was injected on the active channel (Flow Cell 2) for 420 s at 10p/min. Both the reference and active surfaces were then capped with 1M ethanolamine, pH 8.5 for 420 s, achieving an immobilization level of ˜4200 RU. Example compounds were serially diluted 1:1 in running buffer (10 mM HEPES, 150 mM NaCl, 0.05% T20, pH 7.5, 2% DMSO) from 100 nM to 3.125 nM and flowed over the active and reference surfaces for 120 s, and then allowed to dissociate in running buffer for 600 s, at 30 uL/min. The FOLR2 immobilized active surface and the reference surface were regenerated with a 30 s pulse of Sodium Acetate pH 5.5 at 30 μL/min. Sensorgrams were solvent corrected, double-referenced, and the data fitted and analyzed in Biacore Insight Evaluation Software Version 3.0.11.15423.
A general note: SPR reads the build-up and loss of mass on a sensor chip optically.

The target in the next assay is TNFα trimer (Homo sapiens, UniProt P01375). As to the kind of experiment: SPR binding kinetics of compounds to TNFα trimer. As to conditions: read-out: TNFα binding SPR; class symbols. As to the method:
Streptavidin 100 μg/mL Streptavidin (Invitrogen Cat #: 434302) diluted in 10 mM sodium acetate, pH 4.5) was immobilized to both the reference and active surfaces as described in Example 51. The surfaces were conditioned with three injections of running Buffer (10 mM HEPES, 150 mMNaCl, 0.05% T20, pH 7.5, 2% DMSO) at a flow rate of 10 μL/min, Contact time: 60 s. Flow rate: 10 μL/min. The active surface was treated with biotinylated linked TNFα trimer 20 μg/mL diluted in running buffer at a flow rate of 5 μL/min contact time: 600 s, yielding a final response of ˜3000 RU. Example compounds were then serially diluted 1:1 in running buffer (10 mM HEPES, 150 mM NaCl, 0.05% T20, pH 7.5, 2% DMSO) from 30 uM to 937.5 nM and flowed over the active and reference surfaces from lowest concentration to greatest concentration in the single-cycle kinetics format, and then allowed to dissociate in running buffer for 7200 s, at 30 μL/min. Sensorgrams were solvent corrected, double-referenced, and the data fitted and analyzed in Biacore Insight Evaluation Software Version 3.0.11.15423.

Consider `Cc1ccc(C)c(Nc2c(Cl)c(C)nc3ccc(-c4ccc(C(=O)NCCCCn5cc(COCCOCCOCCOCCNC(=O)CC[C@H](NC(=O)c6ccc(NCc7cnc8nc(N)nc(O)c8n7)cc6)C(=O)O)nn5)nc4)cc23)c1`, for which the “co-engagement / complex formation observed on SPR” value in assay [1] is recorded as “complex formation observed”. Moreover, the “Uptake in THP1 cells (run) 3” value in the assay with THP-1 cells (run 3) is “++”. For the same compound, the “Uptake in THP1 cells (run) 4” value in the assay with THP-1 cells (run 4) is “++”. Further, the Kd at FOLR2 was 0.3 nM; on TNFα trimer, below 1000 nM.

The record behind these values is patent US20250127913A1, “BIFUNCTIONAL FOLATE RECEPTOR BINDING COMPOUNDS” (LYCIA THERAPEUTICS, INC., priority 2021, published 2025).
